The numbers were not newly measured in patent publication US20120142623A1, “Compositions And Methods For Predicting Inhibitors Of Protein Targets” (priority 2006, published 2012), which cites them from elsewhere.

A word on the IC50: it is the concentration that inhibits the measured activity by half.

For this series, the target named is Integrase (Human immunodeficiency virus type 1 group M subtype B, UniProt P04585). The note with it: HIV-1 target Integrase; read-out: Inhibitory effect (uM), IC50, Integrase; cited from earlier work.

Molecules are shown by their SMILES.

As to `COc1cc(/C=C/C(=O)CC(=O)/C=C/c2ccc(O)c(OC)c2)ccc1O` [Curcumin], the IC50 is 30 µM.
